Among the data in ChEMBL document CHEMBL1149344, “Discovery of aminoquinazolines as potent, orally bioavailable inhibitors of Lck: synthesis, SAR, and in vivo anti-inflammatory activity” (J Med Chem, 2006) are IC50 values, retold here.

Protein sequences, listed by entry. Tags and fused reporters are not part of them. Lines headed by an entry give the natural chain unless they say otherwise; changes in a name come on top.
UniProt P06239: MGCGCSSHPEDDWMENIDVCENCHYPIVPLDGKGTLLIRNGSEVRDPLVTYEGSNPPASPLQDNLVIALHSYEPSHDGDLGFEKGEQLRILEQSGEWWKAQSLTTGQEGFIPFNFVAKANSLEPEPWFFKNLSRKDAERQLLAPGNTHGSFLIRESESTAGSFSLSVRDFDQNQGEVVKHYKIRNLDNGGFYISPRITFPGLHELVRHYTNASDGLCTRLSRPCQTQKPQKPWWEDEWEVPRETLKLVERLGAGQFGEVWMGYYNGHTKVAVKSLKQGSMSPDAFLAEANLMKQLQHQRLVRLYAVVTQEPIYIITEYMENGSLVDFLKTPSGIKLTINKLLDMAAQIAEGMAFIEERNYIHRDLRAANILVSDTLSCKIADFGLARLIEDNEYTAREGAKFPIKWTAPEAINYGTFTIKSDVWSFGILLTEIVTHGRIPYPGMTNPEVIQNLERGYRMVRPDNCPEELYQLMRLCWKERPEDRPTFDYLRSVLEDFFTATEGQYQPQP

This assay addresses Tyrosine-protein kinase Lck (Homo sapiens, UniProt P06239).

For orientation: IC50 means the concentration needed to halve the response being measured. A higher IC50 goes with a need for much substance. Regarding `CCN(CC)CC(=O)Nc1ccc(C(F)(F)F)cc1NC(=O)c1ccc(C)c(-c2ccc3nc(NC)ncc3c2)c1`, the midpoint of inhibition, the IC50, lay at 0.5 nM.
In the case of `Cc1ccc(C(=O)Nc2cccc(C(F)(F)F)c2)cc1-c1ccc2nc(N)ncc2c1`, the IC50 was found to be 0.2 nM.
